Test results: ChEMBL document CHEMBL1153304, “2,4-Diaminopyridine delta-opioid receptor agonists and their associated hERG pharmacology” (Bioorg Med Chem Lett, 2009)

Tests used:
[1] = Selectivity for human recombinant DOR over kappa opioid receptor
[2] = Selectivity for human recombinant DOR over mu opioid receptor
Homo sapiens = species on record: Homo sapiens; test: Selectivity for human recombinant DOR over human ERG

Compound | fold change (FC) [1] | fold change (FC) [2] | fold change (FC) (Homo sapiens)
Nc1ccnc(N2CCC(n3c(=O)n(Cc4ccccc4)c4cccnc43)CC2)c1 | 50 | 50 | –
Nc1ccnc(N2CCC(n3c(=O)n(-c4ccccc4)c4cccnc43)CC2)c1 | 50 | 50 | –
COc1ccc(C(=O)N(c2cc(C)ccn2)C2CCN(c3cc(N)ccn3)CC2)cc1 | – | – | 500
COc1ccc(-n2c(=O)n(C3CCN(c4cc(N)ccn4)CC3)c3ncccc32)cc1 | 50 | 50 | –
Nc1ccnc(N2CCC(n3c(=O)n(CC4CC4)c4cccnc43)CC2)c1 | 50 | 50 | –
